The record followed here is patent publication US6121252A, “Phosphinic acid derivatives” (priority 1998, dated 2000).

Amino acid sequences for entries named in this document (tags omitted).
UniProt P70627, whole entry: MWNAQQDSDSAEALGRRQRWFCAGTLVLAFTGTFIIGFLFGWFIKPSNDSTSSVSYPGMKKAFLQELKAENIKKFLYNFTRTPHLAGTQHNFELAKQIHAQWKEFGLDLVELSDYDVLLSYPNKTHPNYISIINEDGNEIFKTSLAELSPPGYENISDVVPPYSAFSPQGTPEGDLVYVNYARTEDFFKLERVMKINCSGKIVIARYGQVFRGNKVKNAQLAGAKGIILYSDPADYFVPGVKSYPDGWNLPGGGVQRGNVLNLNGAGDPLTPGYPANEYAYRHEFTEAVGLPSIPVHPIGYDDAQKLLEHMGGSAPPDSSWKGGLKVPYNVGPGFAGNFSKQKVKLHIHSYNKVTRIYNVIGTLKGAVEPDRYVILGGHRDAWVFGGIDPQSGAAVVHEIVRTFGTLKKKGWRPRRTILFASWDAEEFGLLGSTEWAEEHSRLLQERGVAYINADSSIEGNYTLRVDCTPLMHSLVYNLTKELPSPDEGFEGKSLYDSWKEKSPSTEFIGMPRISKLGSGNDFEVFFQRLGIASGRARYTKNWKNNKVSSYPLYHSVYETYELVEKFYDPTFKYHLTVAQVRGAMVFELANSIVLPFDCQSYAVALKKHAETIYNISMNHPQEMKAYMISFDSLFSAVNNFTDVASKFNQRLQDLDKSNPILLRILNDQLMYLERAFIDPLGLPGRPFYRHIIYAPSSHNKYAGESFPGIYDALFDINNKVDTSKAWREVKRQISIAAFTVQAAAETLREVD

Each structure is given as a SMILES string.

The target of this assay is T1, NAALADase (Rattus norvegicus, UniProt P70627).
T1 construct: synaptosomal protein; from tissue; host or cells: synaptosomes (brain tissue)
As to the kind of experiment: In vitro inhibition of NAALADase activity. It counts as biochemical. An excerpt: "Inhibition", in the context of enzymes, refers to reversible enzyme inhibition such as competitive, uncompetitive and non-competitive inhibition. Competitive, uncompetitive and non-competitive inhibition can be distinguished by the effects of an inhibitor on the reaction kinetics of an enzyme. […] The affinity between the inhibitor and the enzyme may be measured by the inhibitor constant, Ki, which is defined as: [formula] wherein [E] is the concentration of the enzyme, [I] is the concentration of the inhibitor, and [EI] is the concentration of the enzyme-inhibitor complex formed by the reaction of the enzyme with the inhibitor. Unless otherwise specified, Ki as used herein refers to the affinity between the inventive compounds and NAALADase.
Various compounds of formula I were tested for in vitro inhibition of NAALADase activity.
Substrate and product were resolved by anion-exchange liquid chromatography. […] Quisqualate (100 μM) was included in parallel assay tubes to confirm the specificity of the measurements.

In general, Ki refers to a measure of affinity in units of concentration, obtained from inhibition or displacement. The compound `O=C(O)CCC(CP(=O)(O)CNc1ccccc1)C(=O)O` (stereo not shown) returned a Ki of 6.3 nM. This counts as single-digit nanomolar.
